# Test results as given in patent US11186582B2, “Substituted [1,2,4]triazolo[1,5-a]pyrimidin-7-yl compounds as PDE2 inhibitors” (DART NEUROSCIENCE (CAYMAN) LTD., priority 2014, dated 2021).
# Chains of the proteins cited; added tags and fusions are not shown. Residues count along the entry.
# UniProt O00408, 2-941: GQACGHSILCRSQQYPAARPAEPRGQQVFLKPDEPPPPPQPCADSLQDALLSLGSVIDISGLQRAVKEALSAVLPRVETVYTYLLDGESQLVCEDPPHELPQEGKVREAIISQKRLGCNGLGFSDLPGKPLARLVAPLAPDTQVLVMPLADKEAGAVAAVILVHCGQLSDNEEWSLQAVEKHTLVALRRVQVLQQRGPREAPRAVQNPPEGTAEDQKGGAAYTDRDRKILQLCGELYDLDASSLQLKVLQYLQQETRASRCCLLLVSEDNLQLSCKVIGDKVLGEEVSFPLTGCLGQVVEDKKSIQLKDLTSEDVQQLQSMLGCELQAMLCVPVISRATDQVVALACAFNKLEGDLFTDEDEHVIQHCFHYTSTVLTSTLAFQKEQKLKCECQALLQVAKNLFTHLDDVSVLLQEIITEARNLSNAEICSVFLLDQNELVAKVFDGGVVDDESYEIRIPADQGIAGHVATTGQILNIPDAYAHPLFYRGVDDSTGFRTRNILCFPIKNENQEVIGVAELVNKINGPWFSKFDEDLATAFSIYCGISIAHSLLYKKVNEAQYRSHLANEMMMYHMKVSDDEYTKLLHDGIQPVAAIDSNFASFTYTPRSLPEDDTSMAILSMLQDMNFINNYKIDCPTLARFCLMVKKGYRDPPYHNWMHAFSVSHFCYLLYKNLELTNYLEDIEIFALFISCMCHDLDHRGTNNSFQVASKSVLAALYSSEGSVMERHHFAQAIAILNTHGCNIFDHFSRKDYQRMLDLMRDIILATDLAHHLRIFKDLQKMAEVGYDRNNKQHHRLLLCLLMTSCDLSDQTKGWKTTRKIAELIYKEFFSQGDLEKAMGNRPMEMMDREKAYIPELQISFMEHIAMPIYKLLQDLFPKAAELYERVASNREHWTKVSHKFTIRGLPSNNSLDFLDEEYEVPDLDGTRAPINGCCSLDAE
# Molecular target: FLAG-tagged PDE2A1 (amino acids 2-941) (Homo sapiens (Human), UniProt O00408)
# Experiment: IMAP TR-FRET PDE2A phosphodiesterase enzymatic assay
# Conditions: not given
row,SMILES,IC50
1,"Cc1cc([C@@H]2CN(C(=O)c3ccc(OC(C)C)c(C)c3)CCO2)n2ncnc2n1 [Example 284, (2S)-4-[3-Methyl-4-(propan-2-yloxy)benzoyl]-2-{5-methyl-[1,2,4]triazolo[1,5-a]pyrimidin-7-yl}morpholine]",> 10000 nM
2,"Cc1cc([C@@H]2CN(C(=O)c3cc(C(C)C)nn3C)CCO2)n2ncnc2n1 [Example 288, (2S)-4-[1-Methyl-3-(propan-2-yl)-1H-pyrazole-5-carbonyl]-2-{5-methyl-[1,2,4]triazolo[1,5-a]pyrimidin-7-yl}morpholine]",1000 to 10000 nM
3,"Cc1cc(C2CN(C(=O)c3ccc4ccncc4c3)CCO2)n2ncnc2n1 (centres unmarked) [Example 297, 7-[(2-{5-Methyl-[1,2,4]triazolo[1,5-a]pyrimidin-7-yl}morpholin-4-yl)carbonyl]isoquinoline]",100 to 1000 nM
4,"Cc1cc(C2CN(C(=O)c3ccc4cccnc4c3)CCO2)n2ncnc2n1 (centres unmarked) [Example 298, 7-[(2-{5-Methyl-[1,2,4]triazolo[1,5-a]pyrimidin-7-yl}morpholin-4-yl)carbonyl]quinoline]",100 to 1000 nM
5,"Cc1cc(C2CN(C(=O)c3ccc(C4CC4)cc3)CCO2)n2ncnc2n1 (centres unmarked) [Example 300, 4-[(4-Cyclopropylphenyl)carbonyl]-2-{5-methyl-[1,2,4]triazolo[1,5-a]pyrimidin-7-yl}morpholine]",100 to 1000 nM

# Same assay, conditions: IMAP TR-FRET, 200 nM FAM-cAMP substrate, 11-point half-log dose-response
row,SMILES,PDE2 (pIC50)
1,"Cc1cc([C@@H]2CN(C(=O)c3c(F)c(F)c(F)c(Br)c3F)CC(F)(F)C2)n2ncnc2n1 [Example 282, (5S)-1-(3-Bromo-2,4,5,6-tetrafluorobenzoyl)-3,3-difluoro-5-{5-methyl-[1,2,4]triazolo[1,5-a]pyrimidin-7-yl}piperidine]",>7
2,"Cc1cc([C@@H]2CN(C(=O)c3cc(F)c(F)c(C4CC4)c3)CC(F)(F)C2)n2ncnc2n1 [Example 283, (5S)-1-(3-Cyclopropyl-4,5-difluorobenzoyl)-3,3-difluoro-5-{5-methyl-[1,2,4]triazolo[1,5-a]pyrimidin-7-yl}piperidine]",>7
3,"CCOc1ccc(C(=O)N2CCO[C@H](c3cc(C)nc4ncnn34)C2)cc1C [Example 285, (2S)-4-(4-Ethoxy-3-methylbenzoyl)-2-{5-methyl-[1,2,4]triazolo[1,5-a]pyrimidin-7-yl}morpholine]",>7
4,"Cc1cc(Br)cc(C(=O)N2CCO[C@H](c3cc(C)nc4ncnn34)C2)c1 [Example 286, (2S)-4-(3-Bromo-5-methylbenzoyl)-2-{5-methyl-[1,2,4]triazolo[1,5-a]pyrimidin-7-yl}morpholine]",>7
5,"Cc1cc(Cl)cc(C(=O)N2CCO[C@H](c3cc(C)nc4ncnn34)C2)c1 [Example 287, (2S)-4-(3-Chloro-5-methylbenzoyl)-2-{5-methyl-[1,2,4]triazolo[1,5-a]pyrimidin-7-yl}morpholine]",>7
6,"Cc1cc([C@@H]2CN(C(=O)c3cc(C)c(OC(C)C)c(C)c3)CCO2)n2ncnc2n1 [Example 289, (2S)-4-[3,5-Dimethyl-4-(propan-2-yloxy)benzoyl]-2-{5-methyl-[1,2,4]triazolo[1,5-a]pyrimidin-7-yl}morpholine]",>7
7,"Cc1cc(C2CN(C(=O)c3ccc4ccccc4n3)CC(F)(F)C2)n2ncnc2n1 (centres unmarked) [Example 290, 2-[(3,3-Difluoro-5-{5-methyl-[1,2,4]triazolo[1,5-a]pyrimidin-7-yl}piperidin-1-yl)carbonyl]quinoline]",>7
8,"Cc1cc(C2CN(C(=O)c3cc(Cl)cc(Br)c3)CCO2)n2ncnc2n1 (centres unmarked) [Example 291, 4-[(3-Bromo-5-chlorophenyl)carbonyl]-2-{5-methyl-[1,2,4]triazolo[1,5-a]pyrimidin-7-yl}morpholine]",>7
9,"Cc1cc(C2CN(C(=O)c3cc(Cl)cc(Br)c3)CC(F)(F)C2)n2ncnc2n1 (centres unmarked) [Example 292, 1-[(3-Bromo-5-chlorophenyl)carbonyl]-3,3-difluoro-5-{5-methyl-[1,2,4]triazolo[1,5-a]pyrimidin-7-yl}piperidine]",>7
10,"Cc1cc(C2CN(C(=O)c3cc4ccccc4cn3)CCO2)n2ncnc2n1 (centres unmarked) [Example 293, 3-[(2-{5-Methyl-[1,2,4]triazolo[1,5-a]pyrimidin-7-yl}morpholin-4-yl)carbonyl]isoquinoline]",>7
11,"Cc1cc(C2CN(C(=O)c3cnc4ccccc4c3)CCO2)n2ncnc2n1 (centres unmarked) [Example 294, 3-[(2-{5-Methyl-[1,2,4]triazolo[1,5-a]pyrimidin-7-yl}morpholin-4-yl)carbonyl]quinoline]",>7
12,"Cc1cc(C2CN(C(=O)c3ccc4ncccc4c3)CCO2)n2ncnc2n1 (centres unmarked) [Example 295, 6-[(2-{5-Methyl-[1,2,4]triazolo[1,5-a]pyrimidin-7-yl}morpholin-4-yl)carbonyl]quinoline]",>7
13,"Cc1cc(C2CN(C(=O)c3ccc4cnccc4c3)CCO2)n2ncnc2n1 (centres unmarked) [Example 296, 6-[(2-{5-Methyl-[1,2,4]triazolo[1,5-a]pyrimidin-7-yl}morpholin-4-yl)carbonyl]isoquinoline]",>7
14,"Cc1cc(C2CN(C(=O)c3ccc(C4CC4)cc3)CC(F)(F)C2)n2ncnc2n1 (centres unmarked) [Example 299, 1-[(4-Cyclopropylphenyl)carbonyl]-3,3-difluoro-5-{5-methyl-[1,2,4]triazolo[1,5-a]pyrimidin-7-yl}piperidine]",>7
15,"Cc1cc([C@@H]2CN(C(=O)c3ccc(C4CC4)cc3)CCO2)n2ncnc2n1 [Example 301, (2S)-4-(4-Cyclopropylbenzoyl)-2-{5-methyl-[1,2,4]triazolo[1,5-a]pyrimidin-7-yl}morpholine]",>7
16,"Cc1cc([C@@H]2CN(C(=O)c3ccc(C4CC4)cc3)CC(F)(F)C2)n2ncnc2n1 [Example 302, (5S)-1-(4-Cyclopropylbenzoyl)-3,3-difluoro-5-{5-methyl-[1,2,4]triazolo[1,5-a]pyrimidin-7-yl}piperidine]",>7
17,"Cc1cc(C2CN(C(=O)c3cc(Br)cc(C(F)(F)F)c3)CCO2)n2ncnc2n1 (centres unmarked) [Example 303, 4-[3-Bromo-5-(trifluoromethyl)benzol]-2-{5-methyl-[1,2,4]triazolo[1,5-a]pyrimidin-7-yl}morpholine]",>7
18,"Cc1cc(C2CN(C(=O)c3cc(Br)cc(C(F)(F)F)c3)CC(F)(F)C2)n2ncnc2n1 (centres unmarked) [Example 304, 1-[3-Bromo-5-(trifluoromethyl)benzoyl]-3,3-difluoro-5-{5-methyl-[1,2,4]triazolo[1,5-a]pyrimidin-7-yl}piperidine]",>7
19,"Cc1cc([C@@H]2CN(C(=O)c3cc(C)c(F)c(C)c3)CC(F)(F)C2)n2ncnc2n1 [Example 307, (5S)-3,3-Difluoro-1-(4-fluoro-3,5-dimethylbenzoyl)-5-{5-methyl-[1,2,4]triazolo[1,5-a]pyrimidin-7-yl}piperidine]",>7
20,"COc1c(F)cc(C(=O)N2C[C@@H](c3cc(C)nc4ncnn34)CC(F)(F)C2)cc1Cl [Example 308, (5S)-1-(3-Chloro-5-fluoro-4-methoxybenzoyl)-3,3-difluoro-5-{5-methyl-[1,2,4]triazolo[1,5-a]pyrimidin-7-yl}piperidine]",>7
21,"Cc1cc([C@@H]2CN(C(=O)c3cc(Br)c(C)c(Br)c3)CC(F)(F)C2)n2ncnc2n1 [Example 310, (5S)-1-(3,5-Dibromo-4-methylbenzoyl)-3,3-difluoro-5-{5-methyl-[1,2,4]triazolo[1,5-a]pyrimidin-7-yl}piperidine]",>7
